The text below walks through data of article PMC7035247 (Scientific Reports, 2020).

Like-named read-outs stand apart in the source and are kept apart here.

This test deals with S. cerevisiae JPY201 expressing Pgp variants. To be noted: for Growth reached in continuous FK506 drug resistance assay: in about 30 hours, when WT Pgp had reached confluency, 23 °C; for Resistance to FK506 (relative to Wt Pgp): 50 µg/ml FK506.

Turning to `C=CC[C@@H]1/C=C(\C)C[C@H](C)C[C@H](OC)[C@H]2O[C@@](O)(C(=O)C(=O)N3CCCC[C@H]3C(=O)O[C@H](/C(C)=C/[C@@H]3CC[C@@H](O)[C@H](OC)C3)[C@H](C)[C@@H](O)CC1=O)[C@H](C)C[C@@H]2OC` [FK506], for the setting “yeast expressing Trp-free mutants A, B, and C of Fig. 4, 50 μg/ml FK506 for 30 hrs”, the FK506 resistance is on record as < 20 % of WT activity. For the same compound, the “Drug resistance (FK506)” value (yeast expressing Trp-free mutants D, E, F and G of Fig. 4, 50 μg/ml FK506 for 30 hrs) is < 20 % of WT activity. In addition, the “Time to 50% growth in continuous FK506 drug resistance assay” value (from here on “Time to 50% growth”) (yeast expressing W(3Cyto)) is 28 h, the “Time to 50% growth” value (yeast expressing WL-Pgp) stood at 32 h and the “Time to 50% growth” value (yeast expressing WT Pgp) was found to be 24 h. In addition, the “Growth reached in continuous FK506 drug resistance assay” value runs as follows: (yeast expressing W(3Cyto)) ~ 70%; (yeast expressing WL-Pgp) ~ 40%. Besides, the “Resistance to FK506 (relative to Wt Pgp)” value (yeast expressing mutant B (W(3Cyto))) amounted to 77 ± 6% and the “Resistance to FK506 (relative to Wt Pgp)” value (yeast expressing mutant C (eight TMD Trps replaced)) turned out to be 68 ± 11%.
